Assay results published in EP4660190A1, “PHARMACEUTICALLY ACCEPTABLE SALT OF COMPOUND AND PREPARATION METHOD THEREFOR” (Jiangsu Chia Tai Fenghai Pharmaceutical Co., Ltd., priority 2023, dated 2024).

Assay: SOD1-G93A ALS mice, body weight
Details: 25 mg/kg p.o., compared to the solvent group

Nc1nc2ccc(OC(F)(F)F)cc2s1 [Riluzole, reference compound]
effect on the body weight of the mice: no significant effect
